Data set [1] deals with T1, human GLP-1 receptor (Homo sapiens, UniProt P43220).
T1 construct: expressed in transfected cells; host or cells: BHK cell line
Put plainly: In vitro GLP-1 activity, BHK cell line overexpressing human GLP-1 receptor and CRE luciferase reporter. It counts as cell-based. Particulars: in the presence of 1% HSA, 4 hours. The procedure: Tested fusion proteins were measured at 100 nM as top concentration in the presence of 1% HSA with 3-fold serial dilutions. After cells were treated with molecules for 4 hours, luciferase activities were measured by Steadylite plus kit (Perkin Elmer, 6066751).
(§1) The activity of each fusion protein was represented by EC50, derived from non-linear regression analysis.

By UniProt entry, the sequences of proteins in these tests, tags left out. Residues count along the entry.
UniProt P43220, 24-463: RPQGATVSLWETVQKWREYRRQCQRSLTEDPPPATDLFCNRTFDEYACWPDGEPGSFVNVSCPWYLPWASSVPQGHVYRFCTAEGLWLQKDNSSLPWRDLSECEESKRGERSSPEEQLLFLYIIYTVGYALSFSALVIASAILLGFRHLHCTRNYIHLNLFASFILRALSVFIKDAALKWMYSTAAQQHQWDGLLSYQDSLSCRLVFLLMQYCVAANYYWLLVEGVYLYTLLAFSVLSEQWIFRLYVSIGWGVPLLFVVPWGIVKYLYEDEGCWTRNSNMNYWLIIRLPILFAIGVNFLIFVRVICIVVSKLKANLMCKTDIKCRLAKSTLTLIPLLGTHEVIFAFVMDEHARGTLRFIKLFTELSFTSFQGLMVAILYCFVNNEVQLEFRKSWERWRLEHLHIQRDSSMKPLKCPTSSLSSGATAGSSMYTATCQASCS

The target of data set [2] is T2, human beta-Klotho (Homo sapiens, UniProt Q86Z14).
T2 construct: expressed in transfected cells; host or cells: HEK293 cell line
The data set is described as follows: In vitro FGF21 activity, p-ERK levels in HEK293 cell line overexpressing human beta-Klotho. The class given is cell-based. Particulars: Table 2, 1% HSA, 12 mins. Here is the method:
The in vitro FGF21 activities of the fusion protein were assessed using a HEK293 cell line overexpressing human beta-Klotho. Tested fusion protein conjugates were measured at 400 nM top concentration with 4-fold serial dilutions in the presence of 1% HSA. After cells were treated with fusion protein conjugates for 12 mins, p-ERK levels were measured by p-ERK kit (Cisbio, 64ERKPEH).
as §1

In data set [3] the target is Human serum albumin (Homo sapiens, UniProt P02768). Put plainly: Human serum albumin binding by surface plasmon resonance (Biacore 8K). The note with it: SPR, human serum albumin bound to CM5 chip. On the technique in general: In SPR one partner is held on a chip, and binding of the other changes the refractive index at the surface.

Results on five substances are retold here after patent publication US12331093B2, “Fusion polypeptides for metabolic disorders” (BEIJING QL BIOPHARMACEUTICAL CO., LTD., priority 2021, dated 2025).

As a reminder, the EC50 is the concentration needed to bring the measured effect to its halfway point. For orientation: Kd means the constant that tells how readily two partners part at equilibrium. Read a low Kd as tighter binding. For the substance “Control#4: GLP1(del7-8, 22E, 36G)-(GAQP)5-ALB8-(GAQP)5-FGF21 (121Q, 168L, 171G, 180E), SEQ ID NO: 76, GLP1 dead [reference compound]”, in data set [1], the EC50 was above 0.05 µM. Also, the EC50 in data set [2] was 0.00147 µM. Also, in data set [3], the affinity, expressed as Kd, was 0.27 µM and the “Rmax (RU)” value is reported as 1252.0 RU.
Take “Control#5: GLP1(del7-8, 22E, 36G)-(GAQP)5-ALB8-(GAQP)2-FGF21 (121Q, 168L, 171G, 180E), SEQ ID NO: 77, GLP1 dead [reference compound]”: the EC50 is above 0.05 µM in data set [1] and 0.00135 µM in data set [2]. The substance further showed a Kd in data set [3] of 0.22 µM. For the same substance, the “Rmax (RU)” value in data set [3] is recorded as 1604.0 RU.
Take “Control#6: GLP1(del7-8, 22E, 36G)-(GAQP)5-ALB8-(GAQP)-FGF21 (121Q, 168L, 171G, 180E), SEQ ID NO: 78, GLP1 dead [reference compound]”: the EC50 in data set [1] is above 0.05 µM. The substance further returned an EC50 in data set [2] of 0.00226 µM. For the same substance, in data set [3], the Kd stood at 0.22 µM and the “Rmax (RU)” value was 1289.8 RU.
With “Control#2: GLP1(del7-8, 22E, 36G)-(GAQP)5-ALB8-(GAQP)10-FGF21 (121Q, 168L, 171G, 180E), SEQ ID NO: 72, GLP1 dead [reference compound]”, the figures for the EC50 in data set [1] and in data set [2] were above 0.05 µM and 0.0021 µM, respectively.
For “Control#1: GLP1(del7-8, 22E, 36G)-(G4S)4-ALB8-G4SG3S-FGF21 (121Q, 168L, 171G, 180E), SEQ ID NO: 71, control to MLC#8, GLP1 dead [reference compound]”, the results for the EC50 in data set [1] and in data set [2] were above 0.05 µM and 0.00104 µM, respectively.
